Assay results taken from patent US5604198A, “Method to enhance permeability of the blood/brain blood/nerve barriers to therapeutic agents” (priority 1994, dated 1997).

Details: rat

With albumin [reference compound] the “Residual endoneurial plasma volume (Vp) of the blood nerve barrier” value (in vivo) was 1.949 ± 0.589 µL/g and the “Permeability coefficient-surface area product (PS) of the blood nerve barrier” value (not told, iv) was 0.101 ± 0.088 ml/g/sec × 10^6.
